## Yeast mating assay B: variants of the scFv Ab-14

Reference: Li et al. 2023, doi:10.1038/s41467-023-39022-2. File: FLAb, binding data.

All variants were tested on one target, the spike HR2 peptide PDVDLGDISGINAS (SARS-CoV-2).

The variants keep the heavy chain, the linker and the frameworks of Ab-14 (scFv order VH, three GGGGS repeats, VL).
VH: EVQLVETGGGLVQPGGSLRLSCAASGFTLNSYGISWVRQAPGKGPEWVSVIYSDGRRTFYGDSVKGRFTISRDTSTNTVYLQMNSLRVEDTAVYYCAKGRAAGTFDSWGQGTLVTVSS
VL: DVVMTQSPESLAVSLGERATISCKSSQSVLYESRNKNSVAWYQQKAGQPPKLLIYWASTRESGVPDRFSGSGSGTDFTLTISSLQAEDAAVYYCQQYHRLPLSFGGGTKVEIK

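Designed CDR sequences, proposed from the first random library and measured here. Group labels follow the data file (Ctrl: baseline library sampled from a position-specific scoring matrix, with some repeated check sequences; GPLM: also part of the Gaussian process libraries; HC: hill climbing; a sequence that several methods proposed may carry one label only). AlphaSeq pools MATa yeast showing the antibodies with MATalpha yeast showing the peptide. Binding brings cells together so that they mate, and sequencing counts the barcode pairs among the diploids. A regression on co-assayed BCL2-family reference pairs converts the normalised counts of each replicate to an apparent Kd. The assay was run in six technical replicates.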

Changes read parent residue, position, new residue, counted from the first residue of the VL shown.
Affinities are written as log10 Kd with Kd in nM; a lower number is a better binder.
A mean of the replicates is given; it leaves out those without a signal.
An entry "n.d." has no value in the source: the pair was not observed among the diploids in that replicate. This suggests poor binding but is not conclusive.
Where one sequence has several entries in the source, the replicates are listed entry by entry, parted by semicolons.

changes	group	log10 Kd, replicates	mean log10 Kd (nM)	control signals
S25I/S62L	Ctrl	0.30 0.21 0.23 0.38 0.27 0.24	0.27	0 of 18
S25I/Q27S	Ctrl	0.59 0.84 0.49 0.44 0.41 0.64	0.57	0 of 18
S25L/L30H/Y31G/W56Q/S62H/S103I	Ctrl	n.d. n.d. n.d. n.d. n.d. n.d.	n.d.	0 of 18
Y31T/S33T/R34S/W56A	Ctrl	0.41 0.00 0.11 0.20 0.09 0.56	0.23	1 of 18 (2.91)
Q96T	Ctrl	n.d. n.d. n.d. n.d. n.d. 2.41	2.41	0 of 18
V29E/R34K/W56N/T59H/Y97C	Ctrl	1.10 0.93 0.96 0.71 1.19 1.31	1.03	0 of 18
V29A/L30P/R34A	Ctrl	1.70 1.26 1.72 1.27 1.64 1.78	1.56	3 of 18 (2.99)
S25I/S26G/Q27W/L30S	Ctrl	1.01 1.73 1.63 2.15 0.99 1.38	1.48	1 of 18 (1.48)
V29Y/L30Y/E32T/R34E	Ctrl	1.43 1.36 1.86 1.60 1.44 2.04	1.62	0 of 18
S62N	Ctrl	1.52 2.03 1.53 2.04 n.d. 2.44	1.91	0 of 18
L30S/W56E	Ctrl	0.35 -0.06 0.16 0.22 0.16 0.37	0.20	1 of 18 (2.48)
W56D/H98C/S103A	Ctrl	n.d. n.d. n.d. n.d. n.d. n.d.	n.d.	0 of 18
K24H/W56N	Ctrl+GPLM_HC	0.17 0.88 1.01 0.81 1.35 1.32; 0.99 1.00 1.12 1.70 1.67 1.28	1.11	1 of 36 (2.47)
S25I/S33G/W56E	Ctrl	0.51 0.93 0.19 0.24 0.43 0.65	0.49	1 of 18 (3.08)
Y31M/S33E/W56E/E61S	Ctrl	0.83 0.46 0.46 0.98 0.44 0.81	0.66	0 of 18
S28N/S38A/A57G/H98M	Ctrl	n.d. 1.80 1.01 1.40 1.13 1.12	1.29	0 of 18
W56G/T59H/E61F/S103D	Ctrl	n.d. 1.91 3.00 2.75 2.24 2.37	2.45	2 of 18 (3.48)
W56N/S62D	Ctrl	0.86 0.81 0.54 0.58 0.72 0.63	0.69	2 of 18 (3.72)
S26Y/L30I/Y31D/E32N/S33E	Ctrl	3.03 1.87 1.95 2.54 2.33 1.58	2.22	1 of 18 (2.10)
S25C/S28A/L30T/R60P/Q95D/S103E	Ctrl	n.d. n.d. n.d. n.d. n.d. n.d.	n.d.	1 of 18 (0.88)
Y31E/E32D/H98A	Ctrl	n.d. n.d. n.d. n.d. n.d. n.d.	n.d.	0 of 18
W56A/L100W	Ctrl	n.d. 3.32 n.d. n.d. 3.70 n.d.	3.51	1 of 18 (3.39)
Q27F/S103F	Ctrl	n.d. 2.76 n.d. 1.93 n.d. n.d.	2.35	0 of 18
V29W/L30P/E32G	Ctrl	0.42 -0.23 0.25 0.03 0.57 0.39	0.24	0 of 18
S25Y	Ctrl	n.d. 0.94 n.d. 2.24 1.35 3.63	2.04	1 of 18 (2.71)
S33Y/W56N/A57G	Ctrl	0.50 0.49 0.30 0.30 0.54 0.66	0.46	3 of 18 (3.22)
K24H/Q27G/R34T/L100E	Ctrl	n.d. n.d. n.d. n.d. n.d. 2.17	2.17	0 of 18
S25V/R34Q	Ctrl	0.73 0.54 0.63 0.41 0.64 0.96	0.65	1 of 18 (2.91)
S26Y/V39I/W56G/L100F	Ctrl	0.87 n.d. n.d. 2.32 2.93 2.00	2.03	0 of 18
V29Q/W56H/T59K/Q95I	Ctrl	n.d. n.d. n.d. n.d. n.d. n.d.	n.d.	0 of 18

4 of these entries, quoted again:

| changes | group | log10 Kd, replicates | mean log10 Kd (nM) | control signals |
|---|---|---|---|---|
| S25Y | Ctrl | n.d. 0.94 n.d. 2.24 1.35 3.63 | 2.04 | 1 of 18 (2.71) |
| W56N/S62D | Ctrl | 0.86 0.81 0.54 0.58 0.72 0.63 | 0.69 | 2 of 18 (3.72) |
| W56A/L100W | Ctrl | n.d. 3.32 n.d. n.d. 3.70 n.d. | 3.51 | 1 of 18 (3.39) |
| V29A/L30P/R34A | Ctrl | 1.70 1.26 1.72 1.27 1.64 1.78 | 1.56 | 3 of 18 (2.99) |

As a blank, each scFv also met three strains without target: over all light chain designs, 4% of these pairings were detected, typically at 2.64 and seldom below 1.59. Also given: how often the same scFv was detected with the empty control strains, with their mean in brackets.
The range of this assay differs from that of the first round, and the authors advise against merging the two.
The authors' rule: three or more of the six replicates give a measured affinity, fewer mean a poor binder.